From patent US20160220464A1 (WUHAN OPTICS VALLEY BRIDGEBIOMED INTERNATIONAL CORPORATION, priority 2013, published 2016)

Protein sequences, listed by entry. Tags and fused reporters are not part of them.
UniProt P30411, whole entry: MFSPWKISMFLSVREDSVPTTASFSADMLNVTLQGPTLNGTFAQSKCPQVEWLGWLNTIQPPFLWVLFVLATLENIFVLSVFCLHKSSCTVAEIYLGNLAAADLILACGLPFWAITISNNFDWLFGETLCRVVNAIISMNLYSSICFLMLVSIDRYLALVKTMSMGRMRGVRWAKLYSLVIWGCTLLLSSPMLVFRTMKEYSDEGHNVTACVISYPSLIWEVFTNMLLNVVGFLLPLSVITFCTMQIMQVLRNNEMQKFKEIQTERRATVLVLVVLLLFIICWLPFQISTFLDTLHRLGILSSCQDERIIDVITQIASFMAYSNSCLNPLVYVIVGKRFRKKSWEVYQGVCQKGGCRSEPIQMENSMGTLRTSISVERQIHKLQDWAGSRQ

Target: T1, B2 receptor (Homo sapiens, UniProt P30411)
T1 construct: The cell strains used in the study were human primary vein endothelial cells (HPVEC) and human aortic smooth muscle cells (HASMC); endogenous in cells; host or cells: human primary vein endothelial cells (HPVEC) and human aortic smooth muscle cells (HASMC)
Assay: Relative PG secretion with B2 receptor inhibitor HOE-140
Type: cell-based
Settings: 1 μM HOE-140; agonists under 10 μM
Experimental: The detailed protocol for the elucidation of inhibited PG secretion by B2 receptor inhibitor HOE-140 was shown as follows. Two different cell lines were transferred into T-75 cell culture flask, and then the instructions of PG kit were strictly followed when cells have reached the appropriate density. Day 1. Cells were seeded in 24 well dishes with minimum medium and allowed to adhere overnight. Day 2. Cells were starved in the serum-free conditioned medium. Day 3. Minimum medium were used, and 0.1 nM, 1 nM, 10 nM, 30 nM, 100 nM, 300 nM, 1 μM, 3 μM and 10 μM of three compounds were added to the medium, respectively, and 1 μM of HOE-140 was added at the same time. Cells were incubated at 37° C. for 1 h. The supernatant was collected after incubation for later use. Day 4. 24 well dishes were washed and then dyed for 45-90 min, and then the quantitative analysis was carried out. Therefore OD values (420 nm) of BK B2 receptor agonists were obtained and relative PG amounts were calculated.

- block of PG synthesis caused by the three compounds: more than 90%
Substance: HOE-140 [reference compound]
